According to patent US12624034B2, “Non-covalent modifiers of AKT1 and uses thereof” (Terremoto Biosciences, Inc., priority 2023, dated 2026):
Where two headings read alike, the source gives them in different places.

Protein sequences, listed by entry. Tags and fused reporters are not part of them. Lines headed by an entry give the natural chain unless they say otherwise; changes in a name come on top.
UniProt P31749, whole entry: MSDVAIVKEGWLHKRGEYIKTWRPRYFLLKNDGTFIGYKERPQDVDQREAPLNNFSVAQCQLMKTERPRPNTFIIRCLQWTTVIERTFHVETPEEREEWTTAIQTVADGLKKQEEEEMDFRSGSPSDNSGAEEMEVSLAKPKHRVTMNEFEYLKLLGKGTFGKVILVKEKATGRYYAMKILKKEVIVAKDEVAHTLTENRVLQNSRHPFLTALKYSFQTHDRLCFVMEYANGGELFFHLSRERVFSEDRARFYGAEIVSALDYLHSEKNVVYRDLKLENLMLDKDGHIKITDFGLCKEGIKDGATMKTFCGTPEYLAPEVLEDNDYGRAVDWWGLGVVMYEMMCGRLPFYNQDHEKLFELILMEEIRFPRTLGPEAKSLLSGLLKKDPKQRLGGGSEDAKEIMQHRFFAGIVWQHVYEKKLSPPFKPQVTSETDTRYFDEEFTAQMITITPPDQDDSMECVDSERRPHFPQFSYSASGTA
UniProt P31749, whole entry E17K: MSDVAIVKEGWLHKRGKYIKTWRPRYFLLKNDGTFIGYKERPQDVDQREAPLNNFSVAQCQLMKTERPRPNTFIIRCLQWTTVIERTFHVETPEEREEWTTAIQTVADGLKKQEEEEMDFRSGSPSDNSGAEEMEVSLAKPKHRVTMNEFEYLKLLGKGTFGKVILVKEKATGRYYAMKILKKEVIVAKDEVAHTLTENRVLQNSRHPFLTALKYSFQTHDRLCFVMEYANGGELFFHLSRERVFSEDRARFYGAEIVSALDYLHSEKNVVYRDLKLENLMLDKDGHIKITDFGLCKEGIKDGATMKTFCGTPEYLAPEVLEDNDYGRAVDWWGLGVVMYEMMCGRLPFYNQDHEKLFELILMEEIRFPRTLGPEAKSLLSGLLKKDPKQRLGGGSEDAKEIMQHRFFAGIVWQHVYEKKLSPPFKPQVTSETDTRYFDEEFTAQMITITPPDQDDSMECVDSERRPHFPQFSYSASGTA
UniProt P31751, whole entry: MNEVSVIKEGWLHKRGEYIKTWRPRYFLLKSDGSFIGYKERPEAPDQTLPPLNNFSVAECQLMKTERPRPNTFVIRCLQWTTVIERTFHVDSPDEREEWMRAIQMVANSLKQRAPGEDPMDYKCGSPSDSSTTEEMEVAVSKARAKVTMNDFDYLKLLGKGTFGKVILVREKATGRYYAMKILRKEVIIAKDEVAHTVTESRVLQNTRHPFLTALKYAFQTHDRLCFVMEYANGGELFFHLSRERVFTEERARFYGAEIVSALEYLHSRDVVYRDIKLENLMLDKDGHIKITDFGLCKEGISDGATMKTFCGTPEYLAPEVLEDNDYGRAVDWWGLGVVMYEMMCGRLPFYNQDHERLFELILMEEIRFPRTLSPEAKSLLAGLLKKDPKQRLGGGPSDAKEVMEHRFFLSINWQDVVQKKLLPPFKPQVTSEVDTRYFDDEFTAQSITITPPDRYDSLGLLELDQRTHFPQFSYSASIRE

Key:
[1] = biological target: AKT1 WT (Homo sapiens, UniProt P31749); assay: Live cell AKT1 WT target engagement by NanoBRET competitive probe displacement in HEK293 cells; conditions: read-out: AKT1 WT IC50, 2 h at 37° C.
[2] = tested on: LAPC4 prostate cancer cells, which express the AKT1 E17K allele; assay: Antiproliferative effects in LAPC4 cells (CellTiter Glo, 72 h)
[3] = biological target: AKT2 (Homo sapiens, UniProt P31751); assay: Live cell AKT2 target engagement by NanoBRET competitive probe displacement in HEK293 cells; conditions: read-out: AKT2 IC50, 2 h at 37° C.
[4] = biological target: AKT1 E17K (Homo sapiens, UniProt P31749, E17K); assay: Live cell AKT1 E17K target engagement by NanoBRET competitive probe displacement in HEK293 cells; conditions: read-out: AKT1 E17K IC50, 2 h at 37° C.
[5] = NanoBRET competitive probe displacement, live HEK293 cells
[6] = read-out: LAPC4 proliferation IC50
[7] = NanoBRET live cell target engagement, HEK293 cells
[8] = NanoBRET live cell target engagement, HEK293 cells, tested form: TFA
[9] = NanoBRET competitive probe displacement, live HEK293 cells, tested form: formate

Question: `Cc1cc(C(=O)N[C@H]2CCc3cc(-n4c(-c5cccnc5N)nc5ccc(-n6cccn6)nc54)ccc32)c2c(n1)OCC2` was tested. Which IC50 [1, 5] did it give?
Answer: 7.78 nM

Question: And the IC50 [2, 6]?
Answer: 1650 nM

Question: What about the IC50 [3, 5] of the same compound?
Answer: 137 nM

Question: And the IC50 [4, 5]?
Answer: 120 nM

Question: What does the source list for `Nc1ncccc1-c1nc2ccc(-n3nccn3)nc2n1-c1ccc2c(c1)CC[C@@H]2NC(=O)c1cnc(C2CC2)o1`?
Answer: IC50 [1, 5]: 26.2 nM; IC50 [3, 5]: 1570 nM

Question: For `Nc1ncccc1-c1nc2ccc(-c3ccn(C4COC4)n3)nc2n1-c1ccc2c(c1)CC[C@@H]2NC1CCN(C(=O)C2CC2)CC1`, which IC50 [1, 5] is on record?
Answer: 133 nM

Question: And the IC50 [3, 5]?
Answer: 4300 nM

Question: Which results are given for `Nc1ncccc1-c1nc2ccc(-n3cccn3)nc2n1-c1ccc2c(c1)CC[C@@H]2NC(=O)c1cncc2c1CCO2`?
Answer: IC50 [1, 7]: 7.01 nM; IC50 [2, 6]: 1710 nM; IC50 [3, 7]: 63.3 nM; IC50 [4, 7]: 55.9 nM

Question: How did the IC50 [1, 5] turn out when `Nc1ncccc1-c1nc2ccc(-n3cccn3)nc2n1-c1ccc2c(c1)CCC2NC1CCN(C(=O)C2CC2)CC1` (stereo not drawn) was run?
Answer: 74.1 nM

Question: What about the IC50 [3, 5] of the same compound?
Answer: 2930 nM

Question: For `COc1cc(C(=O)N[C@H]2CCc3cc(-n4c(-c5cccnc5N)nc5ccc(-n6nccn6)nc54)ccc32)cc(OC)n1`, which IC50 [1, 8] is on record?
Answer: 3.48 nM

Question: And the IC50 ([2]; read-out: LAPC4 proliferation IC50, tested form: TFA)?
Answer: 687 nM

Question: What about the IC50 [3, 8] of the same compound?
Answer: 90.1 nM

Question: What about the IC50 [4, 8] of the same compound?
Answer: 15.8 nM

Question: With `N#Cc1nc(C2CC2)cc(N2CCC(N[C@H]3CCc4cc(-n5c(-c6cccnc6N)nc6ccc(-n7cccn7)nc65)ccc43)CC2)n1` as the compound, how does the IC50 [1, 9] read?
Answer: 34 nM

Question: And the IC50 [3, 9]?
Answer: 351 nM

Question: What about the IC50 [4, 9] of the same compound?
Answer: 61.4 nM
